Experimental data published in EP2236138A1 (priority 2009, dated 2010).

Amino acid sequences for entries named in this document (tags omitted).
UniProt P18825, whole entry: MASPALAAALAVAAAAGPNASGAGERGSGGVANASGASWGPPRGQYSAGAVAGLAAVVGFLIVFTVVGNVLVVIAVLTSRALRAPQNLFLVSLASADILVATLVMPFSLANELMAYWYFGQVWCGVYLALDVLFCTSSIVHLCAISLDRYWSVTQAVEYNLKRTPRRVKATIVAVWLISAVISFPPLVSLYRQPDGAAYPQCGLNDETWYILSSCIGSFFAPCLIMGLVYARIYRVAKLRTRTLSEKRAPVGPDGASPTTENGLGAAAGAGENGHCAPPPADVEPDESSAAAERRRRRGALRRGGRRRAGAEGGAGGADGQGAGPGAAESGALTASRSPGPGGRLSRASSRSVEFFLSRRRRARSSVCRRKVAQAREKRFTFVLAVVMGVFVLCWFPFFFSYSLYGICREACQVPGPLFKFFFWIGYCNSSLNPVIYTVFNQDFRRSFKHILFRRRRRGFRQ

Target: Alpha2C (Homo sapiens, UniProt P18825)
Test: pKi values of test compounds, Alpha2C (Table 1)
Assay type: binding

## CN(C)CCOC1=Cc2ccccc2Sc2ccc(Cl)cc21 [Zotepine]
  Ki: 10 to 100 nM
